Consider one molecule from ChEMBL document CHEMBL1614629, “Extrapolation of human pharmacokinetic parameters from rat, dog, and monkey data: Molecular properties associated with extrapolative success or failure” (J Pharm Sci, 2005).

Some compounds may have been tested in ways that are not shown here.

What is called clearance is the volume of plasma or blood freed of the substance per unit of time. Usually Vdss stands for a proportionality between amount in the body and measured concentration, not a real space.

Data set [1] is described as follows: Clearance in rat after iv administration. Particulars: in vivo. It counts as ADME, organism-based.
The nature of data set [2]: Volume of distribution at steady state in monkey after iv administration. Particulars: macaca, in vivo. It counts as ADME, organism-based.
A short description of data set [3]: Clearance in dog after iv administration. Format: ADME, organism-based, Canis lupus familiaris. Particulars: in vivo.
The nature of data set [4]: Volume of distribution at steady state in human after iv administration. It counts as ADME, organism-based. Particulars: in vivo.
Data set [5] in a line: Clearance in human after iv administration. It counts as ADME, organism-based. The settings on record: in vivo.
The nature of data set [6]: Clearance in monkey after iv administration. Format: ADME, organism-based. The settings on record: macaca, in vivo.
A short description of data set [7]: Volume of distribution at steady state in dog after iv administration. Format: ADME, organism-based, Canis lupus familiaris. The settings on record: in vivo.

With `CCC(=O)N(c1ccccc1)C1(COC)CCN(CCn2nnn(CC)c2=O)CC1`, the clearance stood at 50 mL/min/kg in data set [1], 19 mL/min/kg in data set [3], 6.7 mL/min/kg in data set [5] and 24 mL/min/kg in data set [6]. Besides, the figures for the Vdss in data set [2], in data set [4] and in data set [7] were 1.1 L/kg, 0.8 L/kg and 0.6 L/kg, respectively.
